Measurements: patent US20260240844A1, “INHIBITORS OF CHD1L AND USES THEREOF” (The Regents of the University of Colorado, a body corporate, priority 2023, published 2026)
Entries after “also recorded” stand apart in the source; their conditions may differ.

Experiment: Pharmacokinetics in mice

Cc1cc(Nc2ccc(NC(=O)Cc3cc(Br)cs3)cc2)nc(N2CCCC2)n1 [Compound 6.11, 2-(4-bromothiophen-2-yl)-N-(4-((6-methyl-2-(pyrrolidin-1-yl)pyrimidin-4-yl)amino)phenyl)acetamide]
oral bioavailability: oral bioavailability; also recorded: orally bioavailable
